Compound activity (PubChem)
Sampled rows, rich in hits. Any-hit rate of the full collection: about 16%.
DT40 TDP1 CPT: DT40-hTDP1 cell growth loss with CPT; chicken DT40 Tdp1-/-;hTDP1 cells + 20 nM CPT, ATP luminescence, 48 h; Potency, µM (top dose mostly 46.2 µM), most hits filed as inhibitors; 12% of 420,000 active; further: nearly all actives have a fitted effect of over 55% in size
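Cell growth measured by CellTiter-Glo luminescence after a minimum 48 h, 37 C compound exposure with 20 nM CPT in Tdp1-knockout DT40 cells stably expressing hTDP1, seeded 400/well; qHTS titration format.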
DT40 TDP1 no CPT: qHTS for Inhibitors of human tyrosyl-DNA phosphodiesterase 1 (TDP1): qHTS in cells in absence of CPT | AID 686978, 2013 | Potency, µM (highest dose often 46.2 µM), usual class: inhibitors | DT40 Tdp1-/- hTDP1 cells, no CPT, ATP luminescence, 48 h | 15% of 420,000 active; further: nearly all actives have a fitted effect of over 55% in size
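Growth of hTDP1-complemented DT40 Tdp1-knockout cells is measured by ATP luminescence after at least 48 hr compound exposure at 37 °C, with DMSO substituting for the 20 nM CPT used in the parallel screen.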
miR-21 FLuc: miR-21 reporter, rising signal. HeLa miR-21 FLuc reporter, luciferase, 48 h. Potency, µM (highest dose often 38.3 µM). 340,000 tested, under 10 active. AID 2288; active = well fitted rising curve with a large enough effect; inconclusive = small, poorly fitted or top-dose-only effect; inactive = no such curve, though single readings can be large or run the other way;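 further: miR-21 action dims this reporter so a rising signal means less miR-21 action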
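Using DMEM plus 10% FBS, HeLa miR-21-FLuc cells are incubated with test compounds (final up to about 40uM) for 48 hours; firefly luciferase signal is then imaged following reagent-mediated lysis.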
uPA surface inh: cell surface uPA generation inhibition; 0.31% of 330,000 active; AID 540303; Potency, µM (series often up to 38.3 µM), hits mostly inhibitors; cell surface uPA generation assay, qHTS; active means well fitted inhibition curve with a large enough effect; inconclusive means small, poorly fitted or top-dose-only effect; inactive means no such curve, though single readings can be large or run the other way; tested in mouse RAW 264.7 cells; further: nearly all actives have a fitted effect of over 55% in size
TDP1 inh: inhibitors of human tyrosyl-DNA phosphodiesterase TDP1 | AID 485290 | 0.28% of 350,000 active | Potency, µM (doses to about 130 µM), hits mostly inhibitors | recombinant TDP1, AlphaScreen DNA substrate cleavage | Q9NUW8; further: nearly all actives have a fitted effect of over 40% in size
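AlphaScreen read-out: signal falls as enzyme removes the 3' tyrosine-FITC from a 5'-biotinylated DNA oligo (15 nM, 5 min, RT). Enzyme was E. coli-made recombinant Tdp1 at 1 nM, exposed to compound for 15 min beforehand; beads 10 ug/ml, 10 min.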
Of the large screens only hits and unclear results are named; the others gave an inactive call. Unless noted, the call rests on the fitted dose curve; in most records, active means well fitted curve in the direction sought with a large enough effect; inconclusive means small, poorly fitted or top-dose-only effect, or another doubt; inactive means no such curve, though single readings can be large; an effect the other way counts as inactive or inconclusive.

Fc1ccc(Cn2c(-c3cscn3)nc3ccccc32)c(Cl)c1	DT40 TDP1 CPT inconclusive, DT40 TDP1 no CPT inconclusive
CCc1ccc(NC(=O)Cn2c(-c3cncs3)nc3ccccc32)cc1	DT40 TDP1 CPT inconclusive, DT40 TDP1 no CPT 15µM (no result: uPA surface inh)
Cc1ccc(NC(=O)Cn2c(-c3cncs3)nc3ccccc32)cc1Br	DT40 TDP1 CPT inconclusive, DT40 TDP1 no CPT inconclusive (no result: uPA surface inh)
COC(=O)c1ccccc1NC(=O)Cn1c(-c2nonc2N)nc2ccccc21	DT40 TDP1 CPT 0.79µM, DT40 TDP1 no CPT 0.71µM (no result: uPA surface inh)
Nc1nonc1-c1nc2ccccc2n1CC(=O)Nc1ccccc1C(=O)O	DT40 TDP1 CPT inconclusive, DT40 TDP1 no CPT inconclusive (no result: uPA surface inh)
Nc1nonc1-c1nc2ccccc2n1CC(=O)N/N=C/c1ccc(-c2cccc(C(=O)O)c2)o1	TDP1 inh 14µM
CC(=O)Nc1cc2c(cc1Cl)-c1ccc(F)cc1C2O (configuration not stated)	DT40 TDP1 CPT inconclusive, DT40 TDP1 no CPT inconclusive (no result: miR-21 FLuc, TDP1 inh)
O=C(NC(Cc1c[nH]c2ccccc12)C(=O)N/N=C/c1cccnc1)c1cccs1 (configuration not stated)	none
COC(=O)c1ccc(NC(=O)Cn2c(-c3nonc3N)nc3ccccc32)cc1	DT40 TDP1 CPT inconclusive
CCOC(=O)c1ccc(NC(=O)Cn2c(-c3nonc3N)nc3ccccc32)cc1	DT40 TDP1 CPT 16µM, DT40 TDP1 no CPT inconclusive
CCOC(=O)C1=C(N)OC(CCl)=C(C#N)C1c1ccsc1 (configuration not stated)	DT40 TDP1 CPT 2.1µM, DT40 TDP1 no CPT 2.6µM
O=C1CC(c2nc(-c3cccc(Cl)c3)no2)CN1c1ccc2c(c1)OCCO2 (configuration not stated)	none (no result: uPA surface inh)
COc1ccccc1S(=O)(=O)N(C)C[C@H]1OCc2cnnn2CCCC(=O)N([C@@H](C)CO)C[C@H]1C	none (no result: miR-21 FLuc, uPA surface inh, TDP1 inh)
COc1cc(=O)n2c(c1C(=O)NCc1ccc3c(c1)OCO3)CCN(C(=O)c1cccc(F)c1)CC2	none (no result: miR-21 FLuc, uPA surface inh, TDP1 inh)
COc1ccc(NC(=O)c2cccnc2Nc2ccc(OC)cc2)cc1	DT40 TDP1 CPT 16µM, DT40 TDP1 no CPT inconclusive
COc1ccc(Nc2ncccc2C(=O)NCc2ccccc2)cc1	none (no result: uPA surface inh)
COc1ccc(Nc2ncccc2C(=O)Nc2ccccc2)cc1	DT40 TDP1 CPT 23µM, DT40 TDP1 no CPT 29µM
Cc1cc[n+](-c2nc([O-])sc2/C=N/Nc2ccc([N+](=O)[O-])cc2)cc1	none
CC1CN(C2CC(C)(C)NC(C)(C)C2)CCC1=O (configuration not stated)	none
FC(F)(F)c1cc(C(F)(F)F)c2ccc(N/N=C/c3cccc(Cl)c3)nc2n1	none (no result: DT40 TDP1 CPT, DT40 TDP1 no CPT, uPA surface inh)
CCN(CCC(=O)Nc1ccc(Br)c(C)c1)Cc1ccccc1	DT40 TDP1 CPT inconclusive, DT40 TDP1 no CPT 29µM
CCOC(=O)c1cc(-c2cccc([N+](=O)[O-])c2)n[nH]1	none
CC(NCCC1(C(C)C)CCOC(C)(C)C1)c1cccs1 (configuration not stated)	DT40 TDP1 no CPT inconclusive
CC(NCCC1(Cc2ccccc2Cl)CCOC(C)(C)C1)c1cccs1 (configuration not stated)	DT40 TDP1 CPT 23µM, DT40 TDP1 no CPT 21µM
CCCCCCCCCCCCCC(=O)Nc1ccc(/C=C/c2ccnc3ccccc23)cc1	DT40 TDP1 CPT 11µM, DT40 TDP1 no CPT 18µM (no result: miR-21 FLuc, uPA surface inh, TDP1 inh)
O=C(O)CCN(CCC(=O)O)c1ccc(/C=C/c2ccnc3ccccc23)cc1	none (no result: miR-21 FLuc, uPA surface inh, TDP1 inh)
CCCCCCCCCC(=O)Nn1cnc2ccccc2c1=O	none
CCOC(=O)Nc1ccc(/C=C/c2ccnc3ccccc23)cc1	DT40 TDP1 CPT inconclusive, DT40 TDP1 no CPT 13µM (no result: miR-21 FLuc, uPA surface inh, TDP1 inh)
CN(CC(=O)Nc1ccc(Cl)c(Cl)c1)Cc1nnc(-c2ccc(F)cc2)o1	DT40 TDP1 CPT inconclusive, DT40 TDP1 no CPT inconclusive
Cc1cc[n+](C2=C([O-])c3ccccc3C(=O)/C2=N\S(=O)(=O)c2cccs2)cc1C	DT40 TDP1 CPT inconclusive, DT40 TDP1 no CPT inconclusive, miR-21 FLuc inconclusive
CS/C(=N\S(=O)(=O)c1cccs1)Nc1ccc(Cl)cc1	DT40 TDP1 no CPT inconclusive
O=C(O)c1ccc(S(=O)(=O)/N=C2\C=C(Nc3ccccc3F)C(=O)c3ccccc32)cc1	none
Cc1ccccc1NC1=C/C(=N\S(=O)(=O)c2ccc(C(=O)O)cc2)c2ccccc2C1=O	DT40 TDP1 CPT 16µM, DT40 TDP1 no CPT 18µM
